Earlier results in publication PMC12202309 (International Journal of Neuropsychopharmacology, 2025).

Conditions: cited from earlier work

SMILES: Cc1cc2c(s1)Nc1ccccc1N=C2N1CCN(C)CC1 [olanzapine]
- Biopharmaceutical Classification System class: Class II
